This is an account of results in patent publication US9937115B2, “Oral care compositions with improved flavor” (priority 2010, dated 2018).

The chains behind the UniProt entries cited, without tags or fusion partners. Where a name states a change or a piece, a line headed by the entry shows the natural chain unless it says otherwise.
UniProt O75762: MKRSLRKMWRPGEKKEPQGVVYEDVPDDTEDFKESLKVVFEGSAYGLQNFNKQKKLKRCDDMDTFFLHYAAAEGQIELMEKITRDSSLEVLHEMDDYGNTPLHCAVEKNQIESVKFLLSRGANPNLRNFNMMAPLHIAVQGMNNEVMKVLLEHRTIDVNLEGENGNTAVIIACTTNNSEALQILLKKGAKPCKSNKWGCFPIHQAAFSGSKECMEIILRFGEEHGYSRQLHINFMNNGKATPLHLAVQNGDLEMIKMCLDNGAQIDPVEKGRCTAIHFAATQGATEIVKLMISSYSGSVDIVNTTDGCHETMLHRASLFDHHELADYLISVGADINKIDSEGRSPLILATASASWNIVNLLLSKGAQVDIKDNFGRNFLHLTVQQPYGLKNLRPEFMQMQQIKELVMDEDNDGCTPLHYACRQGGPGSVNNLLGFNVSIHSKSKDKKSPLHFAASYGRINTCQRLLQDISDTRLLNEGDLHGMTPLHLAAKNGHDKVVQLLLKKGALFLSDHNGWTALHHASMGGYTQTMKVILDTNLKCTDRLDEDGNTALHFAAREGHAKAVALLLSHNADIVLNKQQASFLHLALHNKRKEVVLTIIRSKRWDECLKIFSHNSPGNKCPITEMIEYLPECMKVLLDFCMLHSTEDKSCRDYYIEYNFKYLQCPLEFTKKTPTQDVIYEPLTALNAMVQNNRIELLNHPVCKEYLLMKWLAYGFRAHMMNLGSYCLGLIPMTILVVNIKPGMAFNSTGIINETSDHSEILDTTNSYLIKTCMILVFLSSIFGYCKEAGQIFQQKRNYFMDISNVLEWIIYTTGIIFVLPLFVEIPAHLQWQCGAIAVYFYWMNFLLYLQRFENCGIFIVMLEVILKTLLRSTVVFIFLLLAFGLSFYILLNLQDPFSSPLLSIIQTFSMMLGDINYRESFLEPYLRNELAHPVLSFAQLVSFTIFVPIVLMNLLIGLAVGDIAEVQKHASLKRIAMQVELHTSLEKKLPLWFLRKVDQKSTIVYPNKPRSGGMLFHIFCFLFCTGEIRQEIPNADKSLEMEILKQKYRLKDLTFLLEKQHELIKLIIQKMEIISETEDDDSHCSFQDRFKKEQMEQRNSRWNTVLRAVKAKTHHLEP

This assay has as its target TRPA1 receptor (Homo sapiens, UniProt O75762). The following applies: percentage of the control (allyl isothiocyanate) calcium count, material dissolved in DMSO at 100 micromolar, HEK cells with TRPA1.
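Throughout, for TRPA1 Pre-incubation: values above 100 mean more active than the control.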

For Sodium Monofluorophosphate, the “TRPA1 Direct addition” value (direct addition) came to 0.19%. Also, the “TRPA1 Pre-incubation” value (pre-incubation) is listed as 92%.
